Molecular target: Human HDAC8 (Homo sapiens (Human), UniProt Q9BY41)
Assay: HDAC8 fluorogenic peptide deacetylation assay
Format: biochemical

Chains of the proteins cited; added tags and fusions are not shown. Lines headed by an entry give the natural chain unless they say otherwise; changes in a name come on top.
UniProt Q9BY41: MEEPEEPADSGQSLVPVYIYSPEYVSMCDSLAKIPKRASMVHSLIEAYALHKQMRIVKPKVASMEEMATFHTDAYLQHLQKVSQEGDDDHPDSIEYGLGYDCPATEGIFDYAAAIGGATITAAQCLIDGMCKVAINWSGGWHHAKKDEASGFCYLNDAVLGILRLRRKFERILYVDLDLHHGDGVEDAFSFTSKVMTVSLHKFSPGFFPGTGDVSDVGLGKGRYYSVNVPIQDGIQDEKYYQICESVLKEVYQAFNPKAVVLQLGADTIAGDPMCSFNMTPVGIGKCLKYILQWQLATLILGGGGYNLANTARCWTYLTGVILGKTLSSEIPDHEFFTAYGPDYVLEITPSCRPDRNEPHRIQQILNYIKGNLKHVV

In the case of `O=C(CCCCCCC(=O)Nc1ccccc1)NO` [SAHA, suberoylanilide hydroxamic acid, reference compound], the IC50 is reported as 335 nM.

From US8685992B2, “Histone deacetylase inhibitors based simultaneously on trisubstituted 1H-pyrroles and aromatic and heteroaromatic spacers” (Universidad del País Vasco, priority 2009, dated 2014)
